High-throughput results from PubChem BioAssay.
Most compounds without a hit are left out; they make up all but 2.2% or so of the library.
S100A4 MyoIIA = S100A4-myosin IIA interaction inhibition; inhibition, % at 10.7 µM; S100A4/TAMRA-MyoIIA peptide fluorescence polarization; 0.14% of 360,000 active; AID 652163; P26447;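 active means mean inhibition of at least 70% across replicates, with every replicate also reaching that level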
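Test system: S100A4 monomer protein; Medium: HEPES pH 7.2 with CaCl2, KCl, NaCl, DTT, Triton; Probe or stimulus: TAMRA-labelled myosin IIA heavy-chain peptide probe, 5 nM; Doses: one dose per compound; Times: polarization read 5 min after assay mix addition, stable 5–60 min; Benchmarks: neutral control DMSO, positive control TFP.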
UUG fidelity = alters start codon recognition fidelity in yeast; S. cerevisiae UUG-firefly luciferase reporter, luminescence/redox ratio; activity score, % at 18.7 µM; actives 0.13% (n = 350,000); AID 602363;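 active = replicate mean at a twofold rise or more, about +100% in these data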;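 also: firefly luciferase made from a UUG start codon reports start codon fidelity; reporter light over untreated wells divided by growth signal over untreated wells; some hits fall short of that in this replicate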
SIRT5 block = blocks human SIRT5 desuccinylation of peptide. Q9NXA8. inhibition, % at 15 µM. AID 652115. Purified SirT5, succinyl-peptide AMC, trypsin-coupled fluorescence. 1.1% of 330,000 active; in the data active means inhibition above about 15%
ERp5 inh = inhibitors of human ERp5. inhibition, % at 9.99 µM. Q15084. 0.05% of 350,000 active. ERp5 insulin aggregation, absorbance 650 nm, 90 min;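 active means mean replicate inhibition above about 25%, with every replicate also reaching it, limit read from the data, passing the limit was not always enough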
FGF22 binding = binders of recombinant human FGF22 by thermal shift; activity (Tm shift, normalised), % at 9.99 µM; SYPRO orange fluorescence; percent of sucrose octasulfate shift, DMSO zero; AID 651658; 1.5% of 340,000 active; Q9HCT0;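 active means mean Tm shift, scaled 0 neutral to 100 positive control, at about 1.3% or above, every replicate too, limit read from the data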
PDI inh = blocks human protein disulfide isomerase activity; P07237; PDI insulin aggregation turbidity, A650, 90 min; inhibition, % at 10 µM; 0.052% of 350,000 active; AID 588391;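 active means mean inhibition across replicates of 30% or more, whatever share of single replicates reach that level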
Each line names hits and unclear results; the compound was inactive in the other large screens.

CCOC(=O)CCCCCC(=O)Nc1ccc2c(c1)C(=O)N([C@H](C)CO)C[C@@H](C)[C@@H](CN(C)S(=O)(=O)c1ccc(C)cc1)OCCCC[C@H](C)O2	SIRT5 block 21 (no result: UUG fidelity, PDI inh)
Cc1ccc(S(=O)(=O)N(C)C[C@H]2OCCCC[C@@H](C)Oc3ccc(NS(=O)(=O)c4ccccc4)cc3C(=O)N([C@H](C)CO)C[C@H]2C)cc1	SIRT5 block 19 (no result: PDI inh)
Cc1ccc(S(=O)(=O)Nc2ccc3c(c2)C(=O)N([C@H](C)CO)C[C@H](C)[C@@H](CN(C)S(=O)(=O)c2ccc(F)cc2)OCCCC[C@H](C)O3)cc1	none (no result: PDI inh)
Cc1ccc(S(=O)(=O)N(C)C[C@@H]2OCCCC[C@H](C)Oc3ccc(NS(=O)(=O)c4ccc(F)cc4)cc3C(=O)N([C@H](C)CO)C[C@H]2C)cc1	SIRT5 block 22 (no result: PDI inh)
Cc1ccc(S(=O)(=O)N(C)C[C@@H]2OCCCC[C@H](C)Oc3ccc(NS(=O)(=O)c4ccccc4)cc3C(=O)N([C@H](C)CO)C[C@H]2C)cc1	SIRT5 block 18 (no result: PDI inh)
Cc1ccc(S(=O)(=O)N(C)C[C@@H]2OCCCC[C@H](C)Oc3ccc(NS(=O)(=O)c4ccccc4)cc3C(=O)N([C@H](C)CO)C[C@@H]2C)cc1	SIRT5 block 21 (no result: PDI inh)
Cc1ccc(S(=O)(=O)N(C)C[C@H]2OCCCC[C@@H](C)Oc3ccc(NS(=O)(=O)c4c(C)noc4C)cc3C(=O)N([C@@H](C)CO)C[C@H]2C)cc1	S100A4 MyoIIA 94 (no result: PDI inh)
Cc1ccc(S(=O)(=O)N(C)C[C@H]2OCCCC[C@@H](C)Oc3ccc(NS(=O)(=O)c4ccccc4)cc3C(=O)N([C@@H](C)CO)C[C@H]2C)cc1	SIRT5 block 22 (no result: PDI inh)
Cc1ccc(S(=O)(=O)Nc2ccc3c(c2)C(=O)N([C@@H](C)CO)C[C@@H](C)[C@H](CN(C)S(=O)(=O)c2ccccc2)OCCCC[C@@H](C)O3)cc1	none (no result: FGF22 binding, PDI inh)
CN(C)CC(=O)Nc1ccc2c(c1)[C@@H]1C[C@H](CC(=O)NCc3ccc4c(c3)OCO4)O[C@@H](CO)[C@@H]1O2	none (no result: S100A4 MyoIIA, UUG fidelity, SIRT5 block, ERp5 inh, PDI inh)
C[C@@H]1CCCCO[C@@H](CN(C)S(=O)(=O)c2ccccc2)[C@H](C)CN([C@H](C)CO)C(=O)c2cc(NS(=O)(=O)c3ccccc3)ccc2O1	none (no result: PDI inh)
Cc1ccc(S(=O)(=O)Nc2ccc3c(c2)C(=O)N([C@@H](C)CO)C[C@H](C)[C@@H](CN(C)S(=O)(=O)c2ccccc2)OCCCC[C@H](C)O3)cc1	none (no result: FGF22 binding, PDI inh)
Cc1ccc(S(=O)(=O)N(C)C[C@H]2OCCCC[C@H](C)Oc3ccc(NS(=O)(=O)c4ccccc4)cc3C(=O)N([C@@H](C)CO)C[C@H]2C)cc1	SIRT5 block 23 (no result: PDI inh)
C[C@@H]1CN([C@@H](C)CO)C(=O)c2cc(NS(=O)(=O)c3ccccc3)ccc2O[C@@H](C)CCCCO[C@@H]1CN(C)S(=O)(=O)c1ccccc1	SIRT5 block 17 (no result: PDI inh)
Cc1ccc(S(=O)(=O)N(C)C[C@H]2OCCCC[C@H](C)Oc3ccc(NS(=O)(=O)c4ccccc4)cc3C(=O)N([C@H](C)CO)C[C@H]2C)cc1	SIRT5 block 27 (no result: PDI inh)
CC(C)NC(=O)N(C)C[C@H]1Oc2c(NC(=O)C3CCOCC3)cccc2C(=O)N([C@@H](C)CO)C[C@@H]1C	none (no result: PDI inh)
O=C(NCc1ccccc1)c1nc(-c2cccs2)no1	FGF22 binding 44 (no result: UUG fidelity)
O=C(O)CSCC(=O)N(Cc1ccccc1)c1nc(-c2ccccc2)c(-c2ccccc2)s1	SIRT5 block 17 (no result: FGF22 binding)
CCOC(=O)c1sc(N(Cc2ccccc2)C(=O)CCl)nc1C	none
O=C(Nc1cc(F)ccc1F)N1CC(=O)N2[C@H](CO)[C@@H](c3ccc(C#CC4CCCCC4)cc3)[C@@H]2C1	SIRT5 block 18 (no result: UUG fidelity, PDI inh)
O=C(Nc1cc(F)ccc1F)N1CC(=O)N2[C@H](C1)[C@@H](c1ccc(C#CC3CCCCC3)cc1)[C@@H]2CO	SIRT5 block 20 (no result: UUG fidelity, PDI inh)
CC(C)CC#Cc1ccc([C@H]2[C@@H](CO)N3C(=O)CN(C(=O)Nc4cc(F)ccc4F)C[C@@H]23)cc1	none (no result: UUG fidelity, PDI inh)
O=C(Nc1cc(F)ccc1F)N1CC(=O)N2[C@H](C1)[C@H](c1ccc(C#CC3CCCC3)cc1)[C@@H]2CO	none (no result: UUG fidelity, PDI inh)
CC(C)CC#Cc1ccc([C@@H]2[C@H]3CN(C(=O)Nc4cc(F)ccc4F)CC(=O)N3[C@H]2CO)cc1	SIRT5 block 17 (no result: UUG fidelity, PDI inh)
O=C(c1ccccc1)N1CC(=O)N2[C@H](CO)[C@H](c3ccc(C#Cc4ccccc4)cc3)[C@H]2C1	none (no result: UUG fidelity, FGF22 binding, PDI inh)
CN1C(=O)c2cc(NC(=O)C3CC3)ccc2OC[C@H]2O[C@H](CC(=O)NCC3CCCCC3)CC[C@@H]21	none (no result: PDI inh)
COc1ccc(C2C([N+](=O)[O-])=C(C)N(C)C(=O)N2C)cc1OC (stereo unspecified)	none (no result: UUG fidelity)
CCOc1ccc(C2C([N+](=O)[O-])=C(C)N(C)C(=O)N2C)cc1OC (stereo unspecified)	FGF22 binding 43 (no result: UUG fidelity, SIRT5 block)
Cc1ccc(S(=O)(=O)N(C)C[C@H]2OCCCC[C@H](C)Oc3ccc(NS(=O)(=O)c4cn(C)cn4)cc3C(=O)N([C@@H](C)CO)C[C@H]2C)cc1	none (no result: PDI inh)
COc1ccc2c3c(n(C)c2c1)[C@@H](CO)N(C(=O)c1ccccn1)CC31CCN(C(C)=O)CC1	none (no result: UUG fidelity, PDI inh)
CCCNC(=O)C1CC(=O)N(c2ccc(OCC)cc2)C1 (stereo unspecified)	none
CCOc1ccc(N2CC(C(=O)NNC(=O)c3ccc(Br)cc3)CC2=O)cc1 (stereo unspecified)	S100A4 MyoIIA 73
COCC(=O)N1C[C@H](C)[C@@H](OC)CN(C)C(=O)c2ccc(NC(=O)c3ccc(OC)cc3)cc2OC[C@H]1C	none (no result: UUG fidelity, PDI inh)
C[C@@H]1CCCCO[C@H](CN(C)Cc2ccc(C(=O)Nc3ccccc3N)cc2)[C@@H](C)CN([C@H](C)CO)C(=O)c2cc(NS(=O)(=O)c3cccs3)ccc2O1	none (no result: SIRT5 block, PDI inh)
C[C@@H]1CCCCO[C@H](CN(C)Cc2ccc(C(=O)O)cc2)[C@H](C)CN([C@H](C)CO)C(=O)c2cc(NS(=O)(=O)c3cccs3)ccc2O1	SIRT5 block 21 (no result: PDI inh)
C[C@@H]1CCCCO[C@@H](CN(C)Cc2ccc(C(F)(F)F)cc2)[C@H](C)CN([C@@H](C)CO)C(=O)c2cc(NS(=O)(=O)c3cccs3)ccc2O1	SIRT5 block 19 (no result: PDI inh)
C[C@@H]1CCCCO[C@H](CN(C)Cc2ccc(C(F)(F)F)cc2)[C@H](C)CN([C@H](C)CO)C(=O)c2cc(NS(=O)(=O)c3cccs3)ccc2O1	SIRT5 block 16 (no result: PDI inh)
C[C@@H]1CCCCO[C@@H](CN(C)Cc2ccc(C(=O)Nc3ccccc3N)cc2)[C@@H](C)CN([C@H](C)CO)C(=O)c2cc(NS(=O)(=O)c3cccs3)ccc2O1	ERp5 inh 70 (no result: UUG fidelity, PDI inh)
CN1[C@@H]2c3ccc(-c4ccccc4)c(=O)n3C[C@@H]2[C@@H](CO)[C@@H]1C(=O)NC1Cc2ccccc2C1	none (no result: UUG fidelity, PDI inh)
